# Assay results taken from PubChem BioAssay AID1117267 (The Scripps Research Institute Molecular Screening Center, 2014).
# The list shows a part of the results, in another mix than the full data. Some tests of the compounds listed are not included; inactive here does not mean inactive elsewhere. Activity calls are given as the source filed them.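 The calls were made as follows: active = activation above the mean of all tested compounds plus 3 SD (cut at about 9.5% in these data); inactive = the rest.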
# Assay: TTR transcription activators in neuroblastoma reporter cells, primary screen, cell-based, luminescence, SH-SY5Y, TTR promoter Gaussia luciferase (AID 1117267);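 also: cells exposed to compounds for one day before reading; 0% = median of all test compound wells on the plate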
# Details: at 16.7 µM, stronger effect = higher value, 100% = recombinant luciferase protein wells
row,Compound,activation
1,CN(C)c1cccc(C(=O)NCC2(N(C)C)CCCCC2)c1,inactive: 1.42%
2,O=C(OCCN1CCCC1)C(O)(c1ccccc1)c1ccccc1,inactive: 0.03%
3,CC(C)N1C(=O)CC2(CCN(CCOC(=O)C(O)(c3ccccc3)c3ccccc3)CC2)C1=O,inactive: -1.43%
